Literature values, collected in patent US10131672B2, “Therapeutic or prophylactic agent for biliary diseases” (Toray Industries, Inc., priority 2010, dated 2018).

By UniProt entry, the sequences of proteins in these tests, tags left out. Where a name states a change or a piece, a line headed by the entry shows the natural chain unless it says otherwise.
UniProt P01210: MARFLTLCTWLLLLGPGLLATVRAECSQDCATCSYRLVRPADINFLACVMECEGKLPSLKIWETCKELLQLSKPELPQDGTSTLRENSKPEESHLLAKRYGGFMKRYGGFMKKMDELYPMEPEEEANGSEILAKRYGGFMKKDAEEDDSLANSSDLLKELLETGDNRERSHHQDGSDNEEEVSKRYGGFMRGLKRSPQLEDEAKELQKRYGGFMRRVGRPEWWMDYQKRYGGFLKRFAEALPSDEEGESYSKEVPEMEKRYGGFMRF

Test system: sphincter of Oddi
Settings: literature reports; cited from earlier work

For “Leucine enkephalin (YGGFL; Leu-enkephalin; UniProt P01210 230-234, looked up) [endogenous δ opioid receptor agonist peptide]”, which “action on contraction of sphincter of Oddi” value is on record?
The value was “cause transient contraction of sphincter of Oddi, followed by showing a continuous contraction inhibition action”.
